One data set concerns the target Mu-type opioid receptor (Homo sapiens, UniProt P35372). Nature of the data set: Agonist activity at mu-opioid receptor (unknown origin) expressed in CHO cells assessed as inhibition of intracellular cAMP production measured after 45 mins by HTRF-based assay. (In general: Cyclic AMP is a second messenger, typically raised through Gs and lowered through Gi signalling.)

Amino acid sequences for entries named in this document (tags omitted). Residues count along the entry.
UniProt P35372, whole entry: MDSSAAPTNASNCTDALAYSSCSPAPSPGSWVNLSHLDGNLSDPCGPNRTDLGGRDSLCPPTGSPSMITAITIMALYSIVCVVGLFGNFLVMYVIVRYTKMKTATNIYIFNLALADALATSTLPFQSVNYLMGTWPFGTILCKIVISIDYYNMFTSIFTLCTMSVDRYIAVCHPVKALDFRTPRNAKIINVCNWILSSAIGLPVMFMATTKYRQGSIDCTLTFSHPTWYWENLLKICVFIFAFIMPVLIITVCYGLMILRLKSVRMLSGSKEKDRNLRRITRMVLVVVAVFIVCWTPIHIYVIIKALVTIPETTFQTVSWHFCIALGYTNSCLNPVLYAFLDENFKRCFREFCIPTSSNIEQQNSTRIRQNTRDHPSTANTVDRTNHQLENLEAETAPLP
UniProt Q60492, whole entry: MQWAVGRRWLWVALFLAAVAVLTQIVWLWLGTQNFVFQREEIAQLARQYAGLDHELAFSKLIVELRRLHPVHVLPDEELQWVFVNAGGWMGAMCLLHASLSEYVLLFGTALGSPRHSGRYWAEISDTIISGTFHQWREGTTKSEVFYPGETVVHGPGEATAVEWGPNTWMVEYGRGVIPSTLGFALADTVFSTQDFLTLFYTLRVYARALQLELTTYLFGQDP
UniProt P11712, whole entry: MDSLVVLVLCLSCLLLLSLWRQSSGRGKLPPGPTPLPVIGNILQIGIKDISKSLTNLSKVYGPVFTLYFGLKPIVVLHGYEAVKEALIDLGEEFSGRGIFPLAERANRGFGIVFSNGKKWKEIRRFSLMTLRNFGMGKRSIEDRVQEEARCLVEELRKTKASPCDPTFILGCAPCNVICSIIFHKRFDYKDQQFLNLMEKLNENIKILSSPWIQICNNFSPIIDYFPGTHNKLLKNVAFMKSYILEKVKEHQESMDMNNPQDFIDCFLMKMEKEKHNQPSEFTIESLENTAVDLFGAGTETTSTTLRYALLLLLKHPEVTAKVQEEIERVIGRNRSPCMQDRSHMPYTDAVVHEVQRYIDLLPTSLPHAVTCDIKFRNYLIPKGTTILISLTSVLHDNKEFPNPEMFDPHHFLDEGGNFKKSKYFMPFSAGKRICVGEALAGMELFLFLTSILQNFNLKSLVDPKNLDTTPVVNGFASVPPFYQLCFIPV
UniProt P08684, 2-503 limits assumed: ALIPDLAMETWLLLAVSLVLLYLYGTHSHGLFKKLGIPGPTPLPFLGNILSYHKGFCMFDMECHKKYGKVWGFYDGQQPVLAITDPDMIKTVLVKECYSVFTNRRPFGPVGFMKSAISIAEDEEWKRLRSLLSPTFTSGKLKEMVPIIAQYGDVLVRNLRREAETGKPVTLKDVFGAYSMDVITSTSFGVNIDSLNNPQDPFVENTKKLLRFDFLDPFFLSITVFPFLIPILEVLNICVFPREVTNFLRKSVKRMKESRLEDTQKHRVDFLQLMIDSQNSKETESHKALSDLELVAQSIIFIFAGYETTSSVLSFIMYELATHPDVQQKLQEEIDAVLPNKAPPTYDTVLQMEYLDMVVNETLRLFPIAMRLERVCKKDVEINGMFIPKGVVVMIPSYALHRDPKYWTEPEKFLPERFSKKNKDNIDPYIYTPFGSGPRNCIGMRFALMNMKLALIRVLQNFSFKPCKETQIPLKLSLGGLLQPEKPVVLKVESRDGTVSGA
UniProt P35367, whole entry: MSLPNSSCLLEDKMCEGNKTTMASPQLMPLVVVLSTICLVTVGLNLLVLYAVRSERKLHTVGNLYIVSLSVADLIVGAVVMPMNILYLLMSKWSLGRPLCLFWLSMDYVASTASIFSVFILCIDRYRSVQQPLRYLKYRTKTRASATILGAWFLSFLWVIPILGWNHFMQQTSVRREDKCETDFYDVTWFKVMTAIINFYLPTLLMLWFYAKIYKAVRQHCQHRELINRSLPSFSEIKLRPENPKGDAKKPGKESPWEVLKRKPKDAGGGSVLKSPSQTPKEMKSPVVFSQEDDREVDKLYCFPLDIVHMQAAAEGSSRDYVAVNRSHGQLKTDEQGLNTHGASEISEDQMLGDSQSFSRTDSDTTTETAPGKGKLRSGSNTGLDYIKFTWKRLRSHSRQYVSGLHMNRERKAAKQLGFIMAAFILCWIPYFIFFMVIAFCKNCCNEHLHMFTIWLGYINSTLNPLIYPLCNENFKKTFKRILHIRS
UniProt P41595, whole entry: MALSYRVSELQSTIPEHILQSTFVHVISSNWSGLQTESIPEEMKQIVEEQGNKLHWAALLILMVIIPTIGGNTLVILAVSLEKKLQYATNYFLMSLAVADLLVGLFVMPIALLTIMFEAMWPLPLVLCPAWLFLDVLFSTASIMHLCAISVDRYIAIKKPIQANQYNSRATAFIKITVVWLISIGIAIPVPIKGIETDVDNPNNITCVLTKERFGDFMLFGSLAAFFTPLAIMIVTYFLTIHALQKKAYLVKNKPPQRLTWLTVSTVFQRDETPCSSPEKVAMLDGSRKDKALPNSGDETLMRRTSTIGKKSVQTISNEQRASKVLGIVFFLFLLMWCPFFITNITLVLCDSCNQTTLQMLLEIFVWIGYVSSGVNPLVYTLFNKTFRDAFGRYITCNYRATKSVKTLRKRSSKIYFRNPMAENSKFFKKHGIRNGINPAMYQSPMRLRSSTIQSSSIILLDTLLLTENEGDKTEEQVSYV
UniProt P35348, whole entry: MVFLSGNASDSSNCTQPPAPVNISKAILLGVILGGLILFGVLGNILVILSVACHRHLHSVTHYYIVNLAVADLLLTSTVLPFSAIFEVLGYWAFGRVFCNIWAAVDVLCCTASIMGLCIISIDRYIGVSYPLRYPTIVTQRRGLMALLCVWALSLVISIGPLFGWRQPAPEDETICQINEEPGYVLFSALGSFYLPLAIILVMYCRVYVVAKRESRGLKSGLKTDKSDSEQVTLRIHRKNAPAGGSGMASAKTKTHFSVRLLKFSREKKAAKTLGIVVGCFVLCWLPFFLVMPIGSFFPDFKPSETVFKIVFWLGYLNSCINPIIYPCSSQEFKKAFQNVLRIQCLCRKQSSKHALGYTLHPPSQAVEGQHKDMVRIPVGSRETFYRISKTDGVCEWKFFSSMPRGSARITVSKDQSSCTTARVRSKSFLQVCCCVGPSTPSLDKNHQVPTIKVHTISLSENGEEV
UniProt P08913, whole entry: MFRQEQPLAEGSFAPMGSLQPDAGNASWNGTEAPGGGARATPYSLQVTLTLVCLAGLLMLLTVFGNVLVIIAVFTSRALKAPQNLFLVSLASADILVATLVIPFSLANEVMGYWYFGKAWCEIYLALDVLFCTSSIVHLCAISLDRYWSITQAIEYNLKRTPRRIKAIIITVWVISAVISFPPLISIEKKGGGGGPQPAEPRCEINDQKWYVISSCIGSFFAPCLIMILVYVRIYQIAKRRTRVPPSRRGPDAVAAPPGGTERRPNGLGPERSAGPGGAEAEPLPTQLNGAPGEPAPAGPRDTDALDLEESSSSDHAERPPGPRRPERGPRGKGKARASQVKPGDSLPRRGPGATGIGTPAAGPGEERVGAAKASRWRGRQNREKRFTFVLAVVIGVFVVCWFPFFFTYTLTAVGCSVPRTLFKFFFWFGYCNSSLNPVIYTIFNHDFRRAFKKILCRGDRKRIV
UniProt P21728, whole entry: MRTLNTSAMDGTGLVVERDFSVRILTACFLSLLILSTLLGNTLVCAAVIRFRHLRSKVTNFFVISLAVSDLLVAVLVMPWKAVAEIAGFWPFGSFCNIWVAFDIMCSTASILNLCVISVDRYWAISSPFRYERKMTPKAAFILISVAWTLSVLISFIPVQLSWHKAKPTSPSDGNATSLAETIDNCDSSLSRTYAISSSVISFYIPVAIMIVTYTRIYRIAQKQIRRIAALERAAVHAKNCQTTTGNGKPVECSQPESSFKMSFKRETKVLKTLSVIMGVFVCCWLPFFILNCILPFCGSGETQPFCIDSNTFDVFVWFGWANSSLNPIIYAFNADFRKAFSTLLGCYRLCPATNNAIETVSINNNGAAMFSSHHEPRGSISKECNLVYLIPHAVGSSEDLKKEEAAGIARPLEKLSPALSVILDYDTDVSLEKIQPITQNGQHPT
UniProt P25021, whole entry: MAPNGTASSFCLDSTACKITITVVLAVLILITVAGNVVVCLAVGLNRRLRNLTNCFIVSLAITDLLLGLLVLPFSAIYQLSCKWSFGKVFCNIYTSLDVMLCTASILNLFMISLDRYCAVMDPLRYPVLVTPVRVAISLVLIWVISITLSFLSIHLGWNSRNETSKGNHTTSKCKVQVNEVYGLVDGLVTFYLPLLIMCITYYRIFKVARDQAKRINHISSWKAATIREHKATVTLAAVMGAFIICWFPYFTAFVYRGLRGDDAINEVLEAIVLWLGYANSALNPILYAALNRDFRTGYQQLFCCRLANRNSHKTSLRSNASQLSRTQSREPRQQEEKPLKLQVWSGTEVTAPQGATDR
UniProt P21554, whole entry: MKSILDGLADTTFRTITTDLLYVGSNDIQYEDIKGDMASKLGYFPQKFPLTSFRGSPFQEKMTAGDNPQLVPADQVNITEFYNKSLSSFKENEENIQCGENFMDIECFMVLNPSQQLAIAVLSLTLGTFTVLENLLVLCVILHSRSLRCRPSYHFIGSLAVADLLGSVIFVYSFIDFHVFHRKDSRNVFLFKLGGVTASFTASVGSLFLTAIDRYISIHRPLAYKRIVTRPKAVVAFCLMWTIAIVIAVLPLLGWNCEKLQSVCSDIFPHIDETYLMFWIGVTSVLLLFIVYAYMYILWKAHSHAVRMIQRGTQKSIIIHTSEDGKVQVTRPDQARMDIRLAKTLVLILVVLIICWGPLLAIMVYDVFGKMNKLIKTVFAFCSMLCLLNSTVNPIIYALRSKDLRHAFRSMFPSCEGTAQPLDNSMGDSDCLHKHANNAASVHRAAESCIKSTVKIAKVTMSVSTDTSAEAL
UniProt P34972, whole entry: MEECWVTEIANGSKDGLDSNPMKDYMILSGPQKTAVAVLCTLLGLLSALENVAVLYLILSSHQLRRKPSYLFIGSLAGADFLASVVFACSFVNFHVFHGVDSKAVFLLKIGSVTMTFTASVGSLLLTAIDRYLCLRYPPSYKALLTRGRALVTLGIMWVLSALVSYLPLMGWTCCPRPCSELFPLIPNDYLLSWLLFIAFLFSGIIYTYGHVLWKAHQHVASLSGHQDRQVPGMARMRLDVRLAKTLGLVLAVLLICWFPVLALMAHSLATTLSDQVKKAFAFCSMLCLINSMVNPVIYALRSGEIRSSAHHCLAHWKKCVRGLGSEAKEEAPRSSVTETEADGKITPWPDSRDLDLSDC
UniProt P34969, whole entry: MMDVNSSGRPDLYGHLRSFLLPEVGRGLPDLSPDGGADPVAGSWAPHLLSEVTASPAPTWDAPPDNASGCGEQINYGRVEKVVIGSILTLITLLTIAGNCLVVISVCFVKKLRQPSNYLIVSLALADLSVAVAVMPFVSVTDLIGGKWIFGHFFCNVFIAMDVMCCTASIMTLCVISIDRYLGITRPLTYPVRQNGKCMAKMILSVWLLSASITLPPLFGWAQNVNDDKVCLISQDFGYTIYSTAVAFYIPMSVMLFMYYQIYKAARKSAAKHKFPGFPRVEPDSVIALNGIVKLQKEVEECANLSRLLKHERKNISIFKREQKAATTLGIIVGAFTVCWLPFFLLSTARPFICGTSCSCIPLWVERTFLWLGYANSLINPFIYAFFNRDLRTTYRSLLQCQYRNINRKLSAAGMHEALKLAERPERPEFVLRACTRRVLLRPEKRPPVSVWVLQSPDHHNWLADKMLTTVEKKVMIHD
UniProt P07550, whole entry: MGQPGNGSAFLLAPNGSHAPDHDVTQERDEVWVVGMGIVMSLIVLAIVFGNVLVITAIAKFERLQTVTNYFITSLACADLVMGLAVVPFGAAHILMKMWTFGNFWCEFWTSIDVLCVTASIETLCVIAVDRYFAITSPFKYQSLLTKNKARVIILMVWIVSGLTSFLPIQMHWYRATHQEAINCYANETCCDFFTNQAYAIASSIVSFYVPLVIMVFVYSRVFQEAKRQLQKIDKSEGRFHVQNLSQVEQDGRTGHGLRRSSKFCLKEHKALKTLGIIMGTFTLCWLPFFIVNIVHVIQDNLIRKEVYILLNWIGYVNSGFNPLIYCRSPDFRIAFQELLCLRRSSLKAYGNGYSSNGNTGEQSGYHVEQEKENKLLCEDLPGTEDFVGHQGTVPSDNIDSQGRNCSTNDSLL
UniProt P08908, whole entry: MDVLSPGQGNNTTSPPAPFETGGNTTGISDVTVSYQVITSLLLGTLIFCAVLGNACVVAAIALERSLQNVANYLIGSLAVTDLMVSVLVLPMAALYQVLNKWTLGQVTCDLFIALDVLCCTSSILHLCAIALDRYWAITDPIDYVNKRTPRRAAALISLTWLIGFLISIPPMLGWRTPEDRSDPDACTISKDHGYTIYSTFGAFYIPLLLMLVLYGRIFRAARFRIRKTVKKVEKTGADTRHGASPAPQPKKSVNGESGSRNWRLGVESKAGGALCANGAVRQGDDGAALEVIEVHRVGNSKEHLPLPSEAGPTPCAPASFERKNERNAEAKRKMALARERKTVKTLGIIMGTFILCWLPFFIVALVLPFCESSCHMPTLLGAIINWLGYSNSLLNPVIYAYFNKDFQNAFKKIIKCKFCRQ

Data set [1] deals with Sigma non-opioid intracellular receptor 1 (Cavia porcellus, UniProt Q60492). Nature of the data set: Displacement of [3H]-pentazocine from sigma1 receptor in guinea pig brain membrane by radioligand binding assay.
The nature of data set [2]: Toxicity in sc dosed ICR mouse assessed as inhibition of GI transit at 1.5X analgesic ED50 dose measured after 30 mins. The following applies: in vivo, 0.5 h.
The nature of data set [3]: Half life in ICR mouse at 10 mg/kg, sc measured for 24 hrs by LC-MS/MS analysis. The following applies: in vivo.
A further data set deals with Cytochrome P450 2C9 (Homo sapiens, UniProt P11712). The data set is described as follows: Inhibition of human CYP2C9 using diclofenac as substrate at 10 uM by LC-MS/MS analysis.
The target of another data set is Cytochrome P450 3A4 (Homo sapiens, UniProt P08684). Nature of the data set: Inhibition of human CYP3A4 using testosterone as substrate at 10 uM by LC-MS/MS analysis.
The next data set deals with Histamine H1 receptor (Homo sapiens, UniProt P35367). Nature of the data set: Agonist activity at H1 receptor (unknown origin) expressed in HEK cells assessed as inositol phosphate accumulation by AlphaLISA assay. On the technique in general: In Alpha technology, singlet oxygen from a donor bead excites a nearby acceptor bead.
For data set [4], the target named is 5-hydroxytryptamine receptor 2B (Homo sapiens, UniProt P41595). Nature of the data set: Agonist activity at 5-HT2B receptor (unknown origin) expressed in CHO cells assessed as inositol phosphate accumulation by AlphaLISA assay.
The target of data set [5] is Alpha-1A adrenergic receptor (Homo sapiens, UniProt P35348). Nature of the data set: Agonist activity at alpha1A receptor (unknown origin) expressed in HEK cells assessed as inositol phosphate accumulation by AlphaLISA assay.
The target of data set [6] is Alpha-2A adrenergic receptor (Homo sapiens, UniProt P08913). Nature of the data set: Agonist activity at alpha2A receptor (unknown origin) expressed in HEK cells assessed as inositol phosphate accumulation by AlphaLISA assay.
Another data set deals with D(1A) dopamine receptor (Homo sapiens, UniProt P21728). Nature of the data set: Agonist activity at D1 receptor (unknown origin) expressed in CHO cells assessed as inhibition of intracellular cAMP production measured after 45 mins by HTRF-based assay.
A further data set addresses Histamine H2 receptor (Homo sapiens, UniProt P25021). Nature of the data set: Agonist activity at H2 receptor (unknown origin) expressed in CHO cells assessed as inhibition of intracellular cAMP production measured after 45 mins by HTRF-based assay.
For another data set, the target named is Cannabinoid receptor 1 (Homo sapiens, UniProt P21554). The data set is described as follows: Agonist activity at CB1 receptor (unknown origin) expressed in CHO cells assessed as inhibition of intracellular cAMP production measured after 45 mins by HTRF-based assay.
A further data set concerns the target Cannabinoid receptor 2 (Homo sapiens, UniProt P34972). Nature of the data set: Agonist activity at CB2 receptor (unknown origin) expressed in CHO cells assessed as inhibition of intracellular cAMP production measured after 45 mins by HTRF-based assay.
The target of data set [7] is 5-hydroxytryptamine receptor 7 (Homo sapiens, UniProt P34969). The data set is described as follows: Agonist activity at 5-HT7 receptor (unknown origin) expressed in CHO cells assessed as inhibition of intracellular cAMP production measured after 45 mins by HTRF-based assay.
Data set [8] concerns the target Beta-2 adrenergic receptor (Homo sapiens, UniProt P07550). The data set is described as follows: Agonist activity at beta2 receptor (unknown origin) expressed in CHO cells assessed as inhibition of intracellular cAMP production measured after 45 mins by HTRF-based assay.
The target in data set [9] is 5-hydroxytryptamine receptor 1A (Homo sapiens, UniProt P08908). The data set is described as follows: Agonist activity at 5-HT1A receptor (unknown origin) expressed in CHO cells assessed as inhibition of intracellular cAMP production measured after 45 mins by HTRF-based assay.

Eight molecules from ChEMBL document CHEMBL5375969, “A Novel Bifunctional μOR Agonist and σ1R Antagonist with Potent Analgesic Responses and Reduced Adverse Effects” (2023) can be followed below.

As usually defined, the EC50 is the concentration needed to bring the measured effect to its halfway point. For the molecule `CC(=O)N(CC(C)N1CCN(c2ccccc2)CC1)c1ccccn1` (configuration not stated), the EC50 at Mu-type opioid receptor is greater than 1 µM.

For the molecule `CCC(=O)N(CC(C)(C)N1CCN(c2ccccc2)CC1)c1ccccn1`, the concentration giving a half-maximal response (EC50) on Mu-type opioid receptor is greater than 1 µM.

As to `CC(CN(C(=O)c1ccco1)c1ccccn1)N1CCN(c2ccccc2)CC1` (configuration not stated), on Mu-type opioid receptor, the EC50 was greater than 1 µM.

As for `Cc1ccc(N2CCN(C(C)CN(C(=O)c3ccco3)c3ccccn3)CC2)cc1` (configuration not stated), at Mu-type opioid receptor, the half-maximal effective concentration (EC50) is greater than 1 µM.

Usually Ki stands for a dissociation constant, usually derived from enzyme kinetics or from competition with a known ligand. The low end stands for tighter binding, the high end for weaker binding. Molecule `CCC(=O)N(CC(C)N1CCN(c2ccccc2)CC1)c1ccccn1` (configuration not stated) registered a Ki in data set [1] of 8.3 µM. Also, in data set [2], the Activity entry was “Non-Toxic”.

With `CC(CN(C(=O)c1cccs1)c1ccccn1)N1CCN(c2ccccc2)CC1` (configuration not stated), the EC50 at Mu-type opioid receptor is greater than 1 µM.

For the molecule `CCC(=O)N(CCN1CCN(C(=O)c2ccccc2)CC1)c1ccccn1`, the EC50 on Mu-type opioid receptor is greater than 1 µM.

As to `CCC(=O)N(CC(CC)N1CCC(c2ccccc2)CC1)c1ccccn1` (configuration not stated), the t1/2 in data set [3] amounted to 54.6 min. Further, the inhibition (INH) was -0.35% against Cytochrome P450 2C9 and 5.57% against Cytochrome P450 3A4. Besides, the 50% effective concentration (EC50) (at Histamine H1 receptor; in data set [4]; in data set [5]; in data set [6]; at D(1A) dopamine receptor; at Histamine H2 receptor) was greater than 1 µM in each case. The concentration for a half-maximal effect (EC50) (at Cannabinoid receptor 1; at Cannabinoid receptor 2; in data set [7]; in data set [8]; in data set [9]) was greater than 1 µM throughout.
